Like-named read-outs stand apart in the source and are kept apart here.

Protein sequences, listed by entry. Tags and fused reporters are not part of them.
UniProt P30968, whole entry: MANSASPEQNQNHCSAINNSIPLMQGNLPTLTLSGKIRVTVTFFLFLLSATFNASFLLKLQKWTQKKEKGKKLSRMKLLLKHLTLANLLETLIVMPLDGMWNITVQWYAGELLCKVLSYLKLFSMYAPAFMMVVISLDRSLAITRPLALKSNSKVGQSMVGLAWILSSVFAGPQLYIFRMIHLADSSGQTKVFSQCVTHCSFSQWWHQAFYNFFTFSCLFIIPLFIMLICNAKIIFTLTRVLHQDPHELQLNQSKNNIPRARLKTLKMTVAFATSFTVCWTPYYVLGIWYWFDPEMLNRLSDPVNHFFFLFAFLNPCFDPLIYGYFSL

Drawing on US7960562B2, “Propane-1,3-dione derivative or salt thereof” (Astellas Pharma Inc., priority 2005, dated 2011), this text covers IC50 for three compounds.

The experiment concerns the target human GnRH receptor (Homo sapiens, UniProt P30968). Nature of the experiment: Test for GnRH receptor antagonistic effect (inhibition of 125I-D-Trp6-LHRH binding). As for the experimental part: The GnRH receptor antagonistic effects of the compounds of the present invention were evaluated by calculating their concentration that inhibit 50% of the binding of ^125I-D-Trp^6-LHRH to a human GnRH receptor (IC50), according to the description in Patent Reference 1, page 56 “1. Test for GNRH Receptor Antagonistic Effect”.
Accordingly, for confirming the usefulness of “group of —SO2—R^3”, the activities of the compounds of the present invention was compared with those of the comparative compounds having —CO—R^3 group.

Where [1] appears, read: read-out: IC50 (concentration that inhibits 50% of the binding of 125I-D-Trp6-LHRH to a human GnRH receptor), Table 1.

Take `CC(=N)NS(=O)(=O)c1cc(C(=O)C(C(=O)c2cccc(F)c2)=C2Nc3ccccc3N2)ccc1F`: the IC50 under setting [1] came out at 0.16 nM.

In the case of `C[C@@H](O)C(=N)NS(=O)(=O)c1cccc(C(=O)C(C(=O)c2cccc(F)c2)=C2Nc3ccccc3N2)c1`, the IC50 under setting [1] is 0.092 nM.

In the case of `NC(N)=NC(=O)c1cccc(C(=O)C(C(=O)c2cc(F)cc(F)c2)=C2Nc3ccccc3N2)c1`, for the setting “read-out: IC50 (GnRH receptor binding), SO2-R3 compounds versus comparative CO-R3 compounds, Table 2”, the IC50 was 5 nM.
